Our source for the Activity values is ChEMBL document CHEMBL1154647, “Synthesis, spectral characterization and biological evaluation of phosphorylated derivatives of galanthamine” (Eur J Med Chem, 2010).

For experiment [1], the system named is Brain. The experiment in a line: Antioxidant activity in Wistar rat brain assessed as lipid peroxidation. It is filed as functional, tissue-based.
Experiment [2] deals with Brain. The experiment in a line: Antioxidant activity in Wistar rat brain assessed as glutathione content. It is filed as functional. In short, it runs like this: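 Wistar rat brain was homogenised 1:40 (w/v) in 0.1 M phosphate buffer, pH 7.4, with 1 mM EDTA. Total glutathione (GSH + GSSG) and reduced GSH were assayed spectrophotometrically from optical density, using net rate against a standard-curve slope and intercept, times a dilution factor. Homogenate protein was measured by the Lowry method.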

The subject of experiment [3] is Brain. The experiment in a line: Antioxidant activity in Wistar rat brain assessed as catalase content. In kind it is functional.
The subject of experiment [4] is Brain. The experiment in a line: Antioxidant activity in Wistar rat brain assessed as superoxide dismutase content. In kind it is functional.

Consider `COc1ccc2c3c1O[C@H]1C[C@@H](OP(=O)(Oc4ccc([N+](=O)[O-])cc4)SCCN)C=C[C@@]31CCN(C)C2` (stereo partly drawn), for which the Activity came out at 75.5 µg/mL in the experiment with Brain [1], 5.08 µg/mL with Brain [2], 293 µg/mL in the experiment with Brain [3] and 29.9 µg/mL in the experiment with Brain [4].
The matching figures for `COc1ccc2c3c1O[C@H]1C[C@@H](OP(=O)(SCCN)N(CCCl)CCCl)C=C[C@@]31CCN(C)C2` (stereo partly drawn): 72.4 µg/mL, 5.02 µg/mL, 285 µg/mL and 30.6 µg/mL.
